Biological target: T1, VcHutB (Vibrio cholerae, UniProt A0A0H3AE70)
T1 construct: gene hutB
Experiment: biochemical

With `C=CC1=C(C)C2=Cc3c(C=C)c(C)c4[n]3[Fe]([Cl])[n]3c(c(C)c(CCC(=O)O)c3=CC3=NC(=C4)C(C)=C3CCC(=O)O)=CC1=N2` [hemin] as the molecule, how does the Kd read?
The Kd was 200 µM.

Reference: paper PMC5316997, “Structure and dynamics of Type III periplasmic proteins VcFhuD and VcHutB reveal molecular basis of their distinctive ligand binding properties” (Scientific Reports, 2017)
